This is an account of results in article PMC5681660 (2017).

The target in this experiment is T1, human NTCP (Homo sapiens, UniProt Q14973).
T1 sequence (Q14973 1-349): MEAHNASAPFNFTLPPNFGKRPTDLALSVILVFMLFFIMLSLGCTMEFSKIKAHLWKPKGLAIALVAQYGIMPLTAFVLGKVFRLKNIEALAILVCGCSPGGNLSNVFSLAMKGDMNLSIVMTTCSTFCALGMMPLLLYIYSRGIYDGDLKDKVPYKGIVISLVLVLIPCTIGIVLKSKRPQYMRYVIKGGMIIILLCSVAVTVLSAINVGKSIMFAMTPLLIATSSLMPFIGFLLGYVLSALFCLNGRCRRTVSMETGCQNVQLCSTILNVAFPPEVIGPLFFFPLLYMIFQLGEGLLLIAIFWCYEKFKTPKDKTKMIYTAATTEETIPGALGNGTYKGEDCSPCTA
Description: Screening taurocholate uptake assay (96-well, [14C]taurocholate, 10 µM drug). As to conditions: Prestwick library screen.

`Cl.O.O.O=C1CC[C@@]2(O)[C@H]3Cc4ccc(O)c5c4[C@@]2(CCN3CC2CC2)[C@H]1O5` [Naltrexone hydrochloride dihydrate] had a B-score functional assay of -0.138.
